Assay results reported in ChEMBL document CHEMBL1122012, “Adenosine receptors: targets for future drugs” (J Med Chem, 1982).

By UniProt entry, the sequences of proteins in these tests, tags left out. Where a name states a change or a piece, a line headed by the entry shows the natural chain unless it says otherwise.
UniProt P29276: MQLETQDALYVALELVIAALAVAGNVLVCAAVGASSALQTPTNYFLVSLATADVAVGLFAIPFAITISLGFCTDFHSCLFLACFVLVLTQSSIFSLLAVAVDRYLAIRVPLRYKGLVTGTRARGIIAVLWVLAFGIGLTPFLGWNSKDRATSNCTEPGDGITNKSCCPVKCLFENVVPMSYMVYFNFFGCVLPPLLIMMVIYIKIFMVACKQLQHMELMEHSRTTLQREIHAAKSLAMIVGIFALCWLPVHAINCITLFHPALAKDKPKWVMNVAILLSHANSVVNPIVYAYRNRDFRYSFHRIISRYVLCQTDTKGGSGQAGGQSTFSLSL
UniProt P25099: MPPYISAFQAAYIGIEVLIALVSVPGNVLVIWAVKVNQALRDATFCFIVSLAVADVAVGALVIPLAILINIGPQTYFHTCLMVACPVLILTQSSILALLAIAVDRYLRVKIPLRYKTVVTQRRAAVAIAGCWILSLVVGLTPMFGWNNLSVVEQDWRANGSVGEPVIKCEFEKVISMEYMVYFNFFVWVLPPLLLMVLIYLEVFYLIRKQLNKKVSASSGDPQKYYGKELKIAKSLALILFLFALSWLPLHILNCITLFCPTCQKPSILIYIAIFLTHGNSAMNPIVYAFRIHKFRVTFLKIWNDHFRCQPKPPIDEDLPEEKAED
UniProt P30543: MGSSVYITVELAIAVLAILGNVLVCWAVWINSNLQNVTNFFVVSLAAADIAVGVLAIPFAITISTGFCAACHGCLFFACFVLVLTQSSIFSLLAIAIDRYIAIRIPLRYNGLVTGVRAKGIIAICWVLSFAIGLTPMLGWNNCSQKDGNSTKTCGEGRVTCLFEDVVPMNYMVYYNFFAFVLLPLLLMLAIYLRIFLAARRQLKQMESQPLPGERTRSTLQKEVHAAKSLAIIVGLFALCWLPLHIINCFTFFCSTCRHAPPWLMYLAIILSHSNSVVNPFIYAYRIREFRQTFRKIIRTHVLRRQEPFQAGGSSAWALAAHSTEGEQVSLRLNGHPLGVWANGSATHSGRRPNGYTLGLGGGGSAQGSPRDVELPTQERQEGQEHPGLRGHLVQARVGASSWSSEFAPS
UniProt P28647: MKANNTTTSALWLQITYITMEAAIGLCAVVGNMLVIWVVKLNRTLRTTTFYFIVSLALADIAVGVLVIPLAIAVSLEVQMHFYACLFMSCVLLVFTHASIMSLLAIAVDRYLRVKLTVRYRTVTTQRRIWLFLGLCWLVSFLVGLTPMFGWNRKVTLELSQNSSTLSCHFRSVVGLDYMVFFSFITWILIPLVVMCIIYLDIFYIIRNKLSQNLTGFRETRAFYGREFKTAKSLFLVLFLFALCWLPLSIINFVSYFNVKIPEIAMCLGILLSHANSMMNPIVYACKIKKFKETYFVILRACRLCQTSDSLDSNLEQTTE

Columns and labels:
Adenosine receptor [1] = target: T1, Adenosine receptor (Rattus norvegicus, UniProt P29276+P25099+P30543+P28647); assay: Antagonist binding of 2-chloro-[3H]-adenosine in rat brain; assay type: functional, tissue-based
Adenosine receptor [2] = target: T1, Adenosine receptor; assay type: functional
Adenosine receptor [3] = target: T1, Adenosine receptor; assay type: functional; remark: listed apart in the source
Adenosine receptor [4] = target: T1, Adenosine receptor

With `Nc1nc(Cl)nc2c1ncn2[C@@H]1O[C@H](CO)[C@@H](O)[C@H]1O` the Ki (Adenosine receptor [1]) was 1.3 nM, the Ki (Adenosine receptor [2]) was 10 nM and the Ki (Adenosine receptor [3]) was 920 nM. It also gave a Ki (Adenosine receptor [4]) of 9 nM.
